Reference: patent publication US7307166B1, “Oxpurine nucleosides and their congeners, and acyl, derivatives thereof, for improvement of hematopoiesis” (Wellstat Therapeutics Corporation, priority 1987, dated 2007)

Tested on: IL-3-dependent bone marrow cells
Test: Apoptosis of IL-3-dependent bone marrow cells deprived of IL-3 (trypan blue exclusion)
Format: cell-based, mouse

B1: IL3: recombinant IL-3, positive control in apoptosis assay (protein, UniProt P08700 20-152, looked up)
Interleukin-3: APMTQTTPLKTSWVNCSNMIDEIITHLKQPPLPLLDFNNLNGEDQDILMENNLRRPNLEAFNRAVKSLQNASAIESILKNLLPCLPLATAAPTRHPIHIKDGDWNEFRRKLTFYLKTLENAQAQQTTLSLAIF
% Dead Cells (24 hr after IL-3 wash, PdG or dG 10 micrograms per milliliter without IL-3, +IL3 = with IL-3): 7.5 ± 12.5 %
% Dead Cells (40 hr after IL-3 wash, 10 micrograms per milliliter): 6.5 ± 1.5 %
% Dead Cells (60 hr after IL-3 wash, 10 micrograms per milliliter): 10.3 ± 1.9 %
% Dead Cells (84 hr after IL-3 wash, 10 micrograms per milliliter): 13.0 ± 4.0 %
